{"source": "patent US9192560B2", "about": "“Stable composition comprising an anti-ageing compound and a solvent” (CHANEL PARFUMS BEAUTE, priority 2012, dated 2015)", "assay": "Diacetylresveratryl thioctate stabilization test in candidate solvents (solubility at t0 and a day later)", "data": [{"substance": "PPG-15 stearyl ether", "values": [{"measurement": "Solubility 1 D/AT", "setting": "diacetylresveratryl thioctate in the named solvent, a day later, ambient temperature", "result": "Precipitate"}, {"measurement": "Solubility t0/AT", "setting": "diacetylresveratryl thioctate in the named solvent, initial, ambient temperature", "result": "Insoluble"}, {"measurement": "Stability", "setting": "stabilization of diacetylresveratryl thioctate by the named solvent", "result": "No"}]}]}
